Assay results from ChEMBL document CHEMBL4813911 (J Med Chem, 2020).

The chains behind the UniProt entries cited, without tags or fusion partners.
UniProt P21397, whole entry: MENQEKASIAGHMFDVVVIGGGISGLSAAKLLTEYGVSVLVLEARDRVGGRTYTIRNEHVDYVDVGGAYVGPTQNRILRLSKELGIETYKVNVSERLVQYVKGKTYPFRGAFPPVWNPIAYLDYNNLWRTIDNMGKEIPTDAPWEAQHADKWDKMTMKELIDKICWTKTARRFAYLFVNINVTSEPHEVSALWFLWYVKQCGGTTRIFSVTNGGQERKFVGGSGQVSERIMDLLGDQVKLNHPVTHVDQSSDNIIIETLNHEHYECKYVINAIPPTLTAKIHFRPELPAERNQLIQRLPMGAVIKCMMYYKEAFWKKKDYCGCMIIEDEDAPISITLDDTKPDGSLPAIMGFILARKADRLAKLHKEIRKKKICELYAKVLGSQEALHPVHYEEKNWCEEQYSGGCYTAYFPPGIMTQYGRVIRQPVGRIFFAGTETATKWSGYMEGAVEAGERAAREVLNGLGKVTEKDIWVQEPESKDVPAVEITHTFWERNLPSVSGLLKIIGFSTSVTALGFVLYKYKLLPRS

Molecular target: Amine oxidase [flavin-containing] A (Homo sapiens, UniProt P21397)
Experiment: Inhibition of human MAO-A expressed in baculovirus infected BTI insect cells by fluorescence method

SMILES	IC50 (bti) [µM]	IC50 [µM]
NC1CC12CCc1ccccc12 (stereo in doubt; 33)	> 100	
NC1CC12CCc1ccccc12 (stereo in doubt; 32)		> 100
